Shown are actives, neighbours in structure and some others; about 13% of the full set was active somewhere.
Sfp inh – qHTS Assay for Inhibitors of Bacillus subtilis Sfp phosphopantetheinyl transferase (PPTase). Biochemical Sfp PPTase activity, qHTS. Potency, µM, for inactives: max response, negative = inhibition, most hits filed as inhibitors. 310,000 compounds, 3.5% hits. 4'-phosphopantetheinyl transferase ffp (Bacillus subtilis), Q9F4F7; active = well fitted inhibition curve with a large enough effect; inconclusive = small, poorly fitted or top-dose-only effect, or another doubt; inactive = no such curve, though single readings can be large or run the other way;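 note: the enzyme is Sfp with the accession as filed and its product quenches rhodamine fluorescence; potency is the fitted concentration of half-maximal effect; 0% = enzyme reaction without inhibitor and -100% = no enzyme wells; top concentration of the series not given in the record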
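Step 1, compound plus 15 nM Sfp-PPTase, 15 min, room temperature. Step 2, add rhodamine-CoA (5 uM) and BHQ-2-YbbR (12.5 uM). Step 3, read 525/598 nm fluorescence at 0 and 30 min.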
G9a inh – G9a (human) methyltransferase inhibition; actives 8.8% (n = 350,000); Potency, µM (series often up to 102 µM), for the others: top-dose activity, negative = inhibition, usual class: inhibitors; Q96KQ7; G9a H3K9 monomethylation, AlphaScreen, 2 h; also: potency is read from the fitted curve at half-maximal effect; % is scaled to controls: 0 for no effect and ±100 for the full control effect; nearly all actives have a fitted effect of over 75% in size
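G9a (20 nM) was preincubated 15 min with compound, then reacted 2 h at room temperature with 500 nM biotin-H3K9 peptide and 20 µM SAM. Monomethyl-H3K9 detected by AlphaScreen using anti-H3K9me1 antibody.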
ALDH1A1 inh – blocks purified human ALDH1A1 activity; AID 1030; P00352; Potency, µM (doses to about 75.3 µM), for the others: at the top dose activity, negative = inhibition, most hits filed as inhibitors; Purified ALDH1A1, NADH fluorescence, propionaldehyde substrate; actives 7.3% (n = 220,000); active = well fitted inhibition curve with a large enough effect, not every such curve was filed as active; inconclusive = small, poorly fitted or top-dose-only effect, or another doubt; inactive = no such curve, though single readings can be large or run the other way;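 also: potency is read from the fitted curve at half-maximal effect; plate controls were no enzyme wells and a reference inhibitor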
miR-21 reporter – raises the signal of a miR-21 reporter; HeLa miR-21 FLuc reporter, luciferase, 48 h; Potency, µM (top dose mostly 38.3 µM), for inactives: at the highest dose reporter change, positive = more light; AID 2288; 340,000 tested, under 10 active; active = well fitted rising curve with a large enough effect; inconclusive = small, poorly fitted or top-dose-only effect; inactive = no such curve, though single readings can be large or run the other way;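 note: % of control where 0% means no effect; miR-21 action dims this reporter so a rising signal means less miR-21 action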
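Luminescence from a firefly luciferase reporter carrying a miR-21 binding site downstream, stably expressed under a CMV promoter in HeLa cells that make miR-21 endogenously, reports miRNA modulation after 48 h compound exposure up to approximately 40uM final.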
JMJD2E inh – JMJD2E (human) inhibition. JMJD2E catalytic domain, FDH-coupled NADH fluorescence (FDH is formaldehyde dehydrogenase). Potency, µM (doses to about 57.1 µM), for inactives: at the top dose activity change, negative = inhibition, usual class: inhibitors. AID 2147. actives 1.6% (n = 230,000); active = well fitted inhibition curve with a large enough effect, not every such curve was filed as active; inconclusive = small, poorly fitted or top-dose-only effect, or another doubt; inactive = no such curve, though single readings can be large or run the other way;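 also: potency is read from the fitted curve at half-maximal effect; 0% = wells with enzyme and -100% = buffer wells without enzyme; nearly all actives have a fitted effect of over 50% in size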
Lamin A splicing – changes lamin A minigene splicing in HeLa cells | Potency, µM (highest dose often 46.1 µM), for inactives: at the top dose ratio change, negative = inhibition, most hits filed as inhibitors | actives 0.01% (n = 200,000) | HeLa LMNA splicing GFP/RFP minigene ratio, 48 h | AID 1487; active = well fitted inhibition curve with a large enough effect in the signal ratio, with a control signal flat, not every such curve was filed as active; inconclusive = small, poorly fitted or top-dose-only effect, or effect the other way, or a change in a side signal; the % refers to the signal ratio; also: potency is read from the fitted curve at half-maximal effect; % is scaled to controls: 0 for no effect and ±100 for the full control effect
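S3 HeLa cells stably expressing lamin A-EGFP splicing minigene plus DsRed2, 600 cells/well, 48 h compound exposure at 37C. Laser-scanning cytometry; analysed as GFP (500-530 nm)/RFP (575-640 nm) total intensity ratio; 0.5% DMSO vehicle.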
The depositor's hits bear a star; ? = inconclusive; . = not tested or not shown; ! = not active in a repeat; [ ] = dose if it differs, or a comment. Unless noted, calls follow the shape of the dose curve; as a rule, active = well fitted curve in the direction sought with a large enough effect; inconclusive = small, poorly fitted or top-dose-only effect, or another doubt; inactive = no such curve, though single readings can be large; an effect the other way counts as inactive or inconclusive.

Abbreviations – A = Sfp inh; B = G9a inh; C = ALDH1A1 inh; D = miR-21 reporter; E = JMJD2E inh; F = Lamin A splicing
Molecule: CCOc1ccc(NC(=O)N(CCCN2CCOCC2)Cc2cccnc2)cc1
  A: -1%; B: 0%[59 µM]; C: 5%; D: 3%; E: -10%; F: -2%

Molecule: COc1ccc(CN(CCCN2CCOCC2)C(=O)Nc2cccc(Cl)c2)cc1OC
  A: -12%; B: -7%[59 µM]; C: -3%; D: -3%; E: 0%; F: 4%

Molecule: COc1cccc(NC(=S)NCCN2CCOCC2)c1
  A: 5%; B: 23%[59 µM]; C: 13%; D: -5%; E: -1%; F: -7%

Molecule: CCCN1CCCc2cc(CN(CCCN3CCOCC3)C(=O)Nc3ccc(Cl)c(Cl)c3)ccc21
  A: .; B: 11µM*; C: .; D: -5%; E: .; F: ?

Molecule: CCCN1CCCc2cc(CN(CCCN3CCOCC3)C(=O)Nc3ccc(OCC)cc3)ccc21
  A: ?; B: 13µM*; C: ?; D: 3%; E: ?; F: -6%[46 µM]

Molecule: CCN1CCCc2cc(CN(CCN3CCOCC3)C(=S)Nc3cccc(OC)c3)ccc21
  A: 21%; B: ?; C: 16µM*; D: 6%; E: -15%; F: -9%[46 µM]

Molecule: CC(=O)C1=NOC2C(=O)N(c3ccccc3)C(=O)C12 (stereo not drawn)
  A: 3%; B: ?; C: .; D: 0%; E: .; F: .

Molecule: COc1cc(C(=O)NC(C)c2ccc(-n3ccnc3)cc2)cc(OC)c1C (stereo not drawn)
  A: 5%; B: 3.5µM*; C: .; D: -4%; E: .; F: .

Molecule: CC1(C)CC(=O)C(Br)=C(O)C1
  A: 3%; B: ?; C: ?; D: 0%; E: ?; F: 13%[46 µM]

Molecule: CC1(C)CC(=O)C2=C(C1)OC1=C(C2)C(=O)CC(C)(C)C1
  A: 2%; B: 2%[59 µM]; C: 18µM*; D: -3%; E: 1%; F: -10%

Molecule: O=C(Cn1ncc2c([nH]c3ccccc32)c1=O)N1CCN(c2ccccn2)CC1
  A: 6%; B: -4%; C: .; D: 0%; E: .; F: .

Molecule: CCc1n(CC(O)COC2CCCCC2)c2ccccc2[n+]1C (stereo not drawn)
  A: -13%; B: .; C: ?; D: 3%; E: 10µM*; F: 27%[46 µM]

Molecule: CCc1n(CC(O)COCC2CC=CCC2)c2ccccc2[n+]1C (stereo not drawn)
  A: 6%; B: 50µM*; C: -6%; D: 8%; E: 11µM*; F: ?

Molecule: CCCc1n(CC)c2ccccc2[n+]1CC(O)COC1CCCCC1 (stereo not drawn)
  A: 0%; B: ?; C: ?; D: 17%; E: -12%; F: .

Molecule: CN(C)CC[C@@H](c1ccc(Br)cc1)c1ccccn1
  A: 9%; B: 16µM*!; C: 4%; D: .; E: 1%; F: ?

Molecule: CN(C)CC[C@@H](c1ccc(Cl)cc1)c1ccccn1
  A: 27%; B: 21%[59 µM]; C: 5%; D: .; E: 4%; F: -8%

Molecule: Cc1ccc(-n2nnnc2CCl)cc1
  A: ?; B: .; C: 22µM*; D: 18%; E: 5%; F: ?

Molecule: COCCCN=Cc1c(C)[nH]n(-c2ccc(Br)cc2Br)c1=O
  A: 9%; B: 50µM*; C: ?; D: -2%; E: -22%; F: ?

Molecule: CCN(CC)S(=O)(=O)c1ccc(N2CCCCC2)c(NC(=O)C2=COCCO2)c1
  A: .; B: -30%; C: .; D: .; E: .; F: .

Molecule: CCN(CC)S(=O)(=O)c1ccc(N2CCCC2)c(NC(=O)c2ccncc2)c1
  A: 10%; B: 32µM*; C: 16µM*; D: -2%; E: -17%; F: ?

Molecule: CCN(CC)S(=O)(=O)c1ccc(N2CCCCC2)c(NC(=O)c2ccncc2)c1
  A: 7%; B: -8%; C: 11µM*; D: -14%; E: 9%; F: -4%[46 µM]

Molecule: CCN(CC)S(=O)(=O)c1ccc(N2CCCC2)c(NC(=O)C2=COCCO2)c1
  A: .; B: 50µM*; C: .; D: .; E: .; F: .

Molecule: COc1ccc(N2CC(NC(=O)/C=C\c3ccc4c(c3)OCO4)CC2=O)cc1 (stereo not drawn)
  A: .; B: 11%[59 µM]; C: .; D: 11%; E: .; F: 6%[46 µM]

Molecule: CCN1CCN(c2nc3ccccc3nc2NS(=O)(=O)c2ccc(NC(C)=O)cc2)CC1
  A: 9%; B: 4%; C: .; D: -3%; E: .; F: .

Molecule: CCc1ccc(Nc2nc3ccccc3nc2NS(=O)(=O)c2ccccc2)cc1
  A: .; B: 35%[59 µM]; C: .; D: -21%; E: .; F: .

Molecule: O=S(=O)(Nc1nc2ccccc2nc1Cl)c1ccc(F)cc1
  A: 22%; B: -21%[59 µM]; C: .; D: 3%; E: ?; F: .

Molecule: COc1ccc(Nc2nc3ccccc3nc2NS(=O)(=O)c2ccc(NC(C)=O)cc2)cc1
  A: 13%; B: -33%; C: .; D: -17%; E: -10%; F: .

Molecule: CC(=O)Nc1ccc(S(=O)(=O)Nc2nc3ccccc3nc2N2CCCC2)cc1
  A: 18%; B: -28%[59 µM]; C: 11µM*; D: -12%; E: -21%; F: 4%

Gathered by group, the compounds so far with an NH in an aromatic ring.
Abbreviations – A = Sfp inh; B = G9a inh; C = ALDH1A1 inh; D = miR-21 reporter; E = JMJD2E inh; F = Lamin A splicing
Molecule: O=C(Cn1ncc2c([nH]c3ccccc32)c1=O)N1CCN(c2ccccn2)CC1
  A: 6%; B: -4%; C: .; D: 0%; E: .; F: .

Molecule: COCCCN=Cc1c(C)[nH]n(-c2ccc(Br)cc2Br)c1=O
  A: 9%; B: 50µM*; C: ?; D: -2%; E: -22%; F: ?

Two entries from above, reformatted:
> CCN(CC)S(=O)(=O)c1ccc(N2CCCCC2)c(NC(=O)c2ccncc2)c1
- Sfp inh: 7%
- G9a inh: -8%
- ALDH1A1 inh: 11µM*
- miR-21 reporter: -14%
- JMJD2E inh: 9%
- Lamin A splicing: -4%[46 µM]

> CCN(CC)S(=O)(=O)c1ccc(N2CCCC2)c(NC(=O)C2=COCCO2)c1
- Sfp inh: .
- G9a inh: 50µM*
- ALDH1A1 inh: .
- miR-21 reporter: .
- JMJD2E inh: .
- Lamin A splicing: .

From PubChem BioAssay
